From US7064133B2, “Quinoline derivatives process of synthesis and medicaments containing these derivatives” (Bioalliance Pharma, priority 2001, dated 2006)

Assays:
[1] = test system: CEM; assay: Cytotoxicity, MTT to formazan test, cells in suspension; assay type: cell-based; conditions: at 500 μM
Method: (§1) The toxicity of the compounds is evaluated by a test of biotransformation of MTT to formazan by cellular mitochondrial dehydrogenases.

[2] = test system: HeLa; assay: Cytotoxicity, MTT to formazan test, adherent cells; assay type: cell-based; conditions: at 500 μM
Method: as §1

## sodium 2-(2,3,4-dihydroxybenzylcarbamoyl)-8-hydroxyquinoline-7-carboxylate [BioA162]
[1]
  cytotoxicity (MTT): lacks cytotoxicity
[2]
  cytotoxicity (MTT): lacks cytotoxicity
